Where two headings read alike, the source gives them in different places.
Target: H. sapiens SLC2A9 variant 2 (GLUT9B) (Homo sapiens, UniProt Q9NRM0)
Experiment: GLUT9 functional assay: uric acid uptake in HEK293T cells, allantoin formation by MS/MS as proxy of GLUT9B inhibition
Settings: HEK293T cells stably expressing GLUT9B and transiently A. oryzae uricase, uric acid 0.3 mM, 37° C.
Method: Uric acid stocks (9 mM, Millipore-Sigma, U0881) were generated in 125 mM choline chloride (Millipore-Sigma, C7017) and the concentration was determined at 293 nm using a molar extinction coefficient of 9600 M- ^1 cm- ^1) after collecting the absorbance spectra from 220-350 nm. Allantoin stocks (12 mM Toronto Research Chemicals, A540500) were generated in LCMS grade water (Thermo Scientific, 51140). The concentration of allantoin was determined by qNMR (Michigan State University). HEK293T cells were purchased from ATCC (HEK 293T/17 SF). Hanks buffered saline salts (HBSS) was purchased from Millipore-Sigma (H6648-1L). […]
Uric acid uptake was measured in HEK293T cells stably expressing H. sapiens SLC2A9 variant 2 (GLUT9B) and transiently expressing A. oryzae uricase. […] Allantoin was detected in positive ion mode. Desired analyte concentrations were quantitated by integrating the area under the curve followed by a log-logistic regression model and data compared to a standard curve prepared in a matching HEK293T biological matrix.
Mass spectrometry measurement of allantoin was completed using an Agilent RapidFire 300 coupled to a Sciex API 4000 mass spectrometer. […] Allantoin was detected in positive ion mode with the following compound ID settings: Q1 159, Q3 115.8, DP 57, CE 12.5 Dwell 100 ms. […]

Protein sequences, listed by entry. Tags and fused reporters are not part of them. Residues count along the entry.
UniProt Q9NRM0, 1-511 isoform 2: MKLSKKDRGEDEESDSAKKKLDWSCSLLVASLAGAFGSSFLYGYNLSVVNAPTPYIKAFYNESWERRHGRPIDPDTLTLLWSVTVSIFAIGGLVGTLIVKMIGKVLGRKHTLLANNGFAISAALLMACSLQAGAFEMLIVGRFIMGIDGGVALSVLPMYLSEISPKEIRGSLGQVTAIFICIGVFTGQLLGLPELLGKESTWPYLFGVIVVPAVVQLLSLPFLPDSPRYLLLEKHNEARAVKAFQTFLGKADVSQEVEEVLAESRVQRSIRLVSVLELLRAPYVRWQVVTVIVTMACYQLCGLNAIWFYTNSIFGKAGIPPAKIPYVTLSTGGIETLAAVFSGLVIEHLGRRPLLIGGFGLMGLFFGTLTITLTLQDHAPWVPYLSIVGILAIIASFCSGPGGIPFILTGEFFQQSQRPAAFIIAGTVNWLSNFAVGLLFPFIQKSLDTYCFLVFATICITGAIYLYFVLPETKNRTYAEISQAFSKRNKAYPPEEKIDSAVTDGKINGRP

SMILES | IC50 (read-out: 15 min IC50, 15 minute assay) [nM] | IC50 (read-out: 60 min IC50, 60 minute assay) [nM]
CCCCCc1cnc(-c2ccc(OCCOC)cc2)c(N2CCC(C(=O)O)CC2)n1 | < 500 | –
COCCCc1cnc(-c2cc(C)c3nc(C)cn3n2)c(N2CCC(C(=O)O)CC2)n1 | – | > 2000

Source: US20250179032A1, “HETEROCYCLIC INHIBITORS OF GLUT9 FOR TREATMENT OF DISEASE” (HORIZON THERAPEUTICS IRELAND DAC, priority 2022, published 2025)
